## scFv variants of Ab-14 (heavy chain) against a SARS-CoV-2 spike peptide

Values reported by Li et al. 2023, doi:10.1038/s41467-023-39022-2 (FLAb copy).

The target is the same throughout: PDVDLGDISGINAS, from the HR2 region of SARS-CoV-2 spike.

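Phage display of a naive human antibody library on the peptide gave the parent. These sequences belong to a second round, designed from the earlier measurements on random variants of the parent. Several design methods are mixed in this list. AlphaSeq pools MATa yeast showing the antibodies with MATalpha yeast showing the peptide. After mating in shaken culture at 30 °C for 16 h, diploids were selected and their barcode pairs sequenced. Read counts were normalised to the haploid input and turned into Kd by a linear fit to BCL2-family pairs of known affinity, for each replicate. Each pool was mated in six replicate cultures.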

Parent scFv Ab-14: VH joined to VL by the linker GGGGSGGGGSGGGGS. Changes lie in the heavy chain CDRs alone.
VH: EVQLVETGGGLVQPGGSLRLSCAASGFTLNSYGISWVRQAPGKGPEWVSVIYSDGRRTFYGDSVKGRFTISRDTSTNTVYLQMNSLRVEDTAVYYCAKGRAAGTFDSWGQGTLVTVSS
VL: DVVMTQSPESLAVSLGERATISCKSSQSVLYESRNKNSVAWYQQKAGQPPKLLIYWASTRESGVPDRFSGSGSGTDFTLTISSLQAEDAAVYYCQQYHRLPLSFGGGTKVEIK

Variants are written as CDR1, CDR2 and CDR3 of the heavy chain (limits as in the source). Parent: GFTLNSYGIS, VIYSDGRRTFYGDSVK, GRAAGTFDS.
Values are log10 of the apparent Kd in nM; lower means stronger binding.
Replicates are averaged; those with no signal do not enter the mean.
"n.d." marks a missing value. The strain was present, yet no cells mated with the target were sequenced in that replicate, which points to weak or no binding.
The authors averaged sequences with at least three values out of six and counted those with two or fewer as poor binders.
As a blank, each scFv also met three strains without target: over all heavy chain designs, 1% of these pairings were detected, typically at 2.08 and seldom below 0.84. For each scFv, signals with the empty controls are counted beside the result, with their mean in brackets.
Values of this round are not directly comparable with the first-round values of the same sequences.

CDR-H1,CDR-H2,CDR-H3,"log10 Kd, replicates","mean, log10 nM",empty controls
GFELNSYGIS,VIYSDGRRTFYGDSVK,GEAAGTFDM,3.25 n.d. 2.05 n.d. n.d. n.d.,2.65,0 of 18
GDILEDYGIS,VIYADGRRRAYQENVK,GEYAGYFDV,3.28 n.d. n.d. n.d. 1.74 1.84,2.29,1 of 18 (1.59)
GFSLLSYGIS,VIYSDGLRVFYRDSVK,GRAAGTFDS,n.d. n.d. n.d. n.d. n.d. n.d.,n.d.,0 of 18
GFDLDEYGIS,VIYADGMRTAYADSVK,GNTAGTFDV,-1.04 -0.50 -1.31 -1.31 -0.75 -0.20,-0.85,0 of 18
GFTLNEYGIS,VIYSDGRRTFYGDSVK,GKVAGTFDT,0.63 0.70 0.32 0.27 0.43 0.50,0.48,1 of 18 (1.72)
GFDLNSYGIS,VIYSDGRRTFYIDSVK,GAAAGTFDS,0.95 0.89 0.65 0.53 0.58 0.65,0.71,1 of 18 (2.13)
GFDLNSYGIS,VIYSDGMRTFYGDKVK,GRTAGTFDS,0.21 0.91 0.56 0.02 0.29 0.23,0.37,0 of 18
GFSLNSYGIS,VIYADGRRTFYGDSVK,GQAAGTFDM,0.00 -0.24 -0.43 -0.37 -0.40 -0.07,-0.25,0 of 18
GFDLNTYGIS,VIYSDGRRTFYADSVK,GNAAGTFDS,0.24 -0.11 0.50 0.09 0.01 0.05,0.13,0 of 18
GFTLDSYGIS,VIYSDGRKTFYGDSVK,GRAAGTFDS,n.d. n.d. n.d. n.d. n.d. n.d.,n.d.,0 of 18
GFDLDEYGIS,VIYADGQRTAYTDSVK,GNVAGTFDI,-0.59 -0.31 -0.41 -0.93 -0.36 -0.31,-0.48,0 of 18
GFDLNSYGIS,VIYSDGRRTFYGDSVK,GHAAGTFDA,0.16 -0.17 0.37 -0.06 -0.09 0.35,0.10,0 of 18
GFTLNEYGIS,VIYSDGRRTFYSDSVK,GHAAGTFDF,n.d. 1.86 1.25 2.83 n.d. 1.47,1.85,0 of 18
GFDLNEYGIS,VIYADGKRTAYADSVK,GQNAGTFDQ,-0.07 -0.41 -0.21 -0.61 -0.35 -0.25,-0.32,0 of 18
GFNLNEYGIS,VIYADGIRENYADSFK,GKSNNFFLD,n.d. n.d. n.d. n.d. n.d. n.d.,n.d.,0 of 18
GFDLDEYGIS,VIYADGMRTAYADSVK,GGNAGTFDL,-0.01 0.04 -0.35 -0.37 -0.66 -0.24,-0.27,0 of 18
GFDLNEYGIS,VIYADGRRTSYSDSVK,GEAAGTFNV,-1.02 -0.32 -0.40 -0.94 -0.53 -0.40,-0.60,0 of 18
GFALNSYGIS,VIYSDGRRTFYGDSVK,GRAGWTFDS,n.d. n.d. n.d. n.d. n.d. n.d.,n.d.,1 of 18 (1.17)

Continued, with the values leading:

"log10 Kd, replicates","mean, log10 nM",empty controls,CDR-H1,CDR-H2,CDR-H3
n.d. n.d. n.d. n.d. n.d. n.d.,n.d.,0 of 18,GFCLNSYGIS,VIYADGRRTFYGDSVK,GRAAGTMKS
0.77 -0.22 0.37 1.67 n.d. 2.19,0.96,0 of 18,GFDLDEYGIS,VIYADGMRTAYVDSVK,GENAGTFDL
0.01 -0.17 0.09 0.03 -0.29 0.17,-0.03,0 of 18,GFDLNEYGIS,VIYADGVRTAYTDSVK,GNNAGTFDL
-0.49 -0.20 -0.47 -0.60 -0.43 -0.28,-0.41,0 of 18,GFDLNEYGIS,VIYADGMRTAYADNVK,GEIAGTFDV
-0.15 n.d. -0.81 -0.72 -1.19 -1.60,-0.89,0 of 18,GFDLNEYGIS,VIYADGMRTAYANDVK,GEVAGTFDL
0.98 0.25 0.63 0.00 0.60 0.56,0.50,3 of 18 (2.10),GFTLNSYGIS,VIYSDGRRTFYTDSVK,GKEAGTFDS
n.d. 1.74 n.d. n.d. 0.09 1.01,0.94,0 of 18,GFDINEYGIS,VIYADGKRTAYADSVK,GEAAGTFDS
n.d. n.d. n.d. n.d. n.d. 0.99,0.99,0 of 18,GFDIEDYGIS,VIYADGVRAMYKESFK,GQIAGTFLI
2.45 1.48 2.23 2.31 1.28 1.79,1.92,0 of 18,GFKLDEYGIS,VIYADGRRTQYSDAFK,GTGDFDIEG
0.17 -0.30 -0.21 -0.26 -0.40 -0.66,-0.27,0 of 18,GFDLNEYGIS,VIYADGMRTAYADSVK,GQVAGTFDT
2.73 1.12 1.89 1.45 1.05 1.42,1.61,0 of 18,GFPLNSYGIS,VIYSDGRRTFYKDSVK,GQLAGTFDS
n.d. n.d. n.d. n.d. n.d. 1.50,1.50,0 of 18,GQDLEEFGIS,VIYADGMRAAYADNVK,GVKNGNVTI
0.03 -0.24 0.07 -0.01 0.29 0.24,0.06,0 of 18,GFDLDEYGIS,VIYADGMRTSYADDVK,GENAGTFDV
n.d. n.d. n.d. n.d. n.d. n.d.,n.d.,1 of 18 (0.35),GFTLNSYGGS,VIYSDGRRTFYGDSVD,GTTAGSFDS
1.86 0.91 0.57 0.63 0.90 1.26,1.02,0 of 18,GFTLNSYGIS,VIYSDGRRTFYGDSVK,GRAKGTFDT
0.84 0.63 0.90 0.83 0.87 0.65,0.79,0 of 18,GFDLDEYGIS,VIYADGMRTVYADSVK,GNTAGTFDV
n.d. n.d. n.d. n.d. n.d. n.d.,n.d.,0 of 18,GFTLNSYGIS,VIYSDGERTFYGDSVK,GRTAGTFDK
1.25 1.39 0.20 n.d. n.d. n.d.,0.95,0 of 18,GFTLNSYGIS,VIYSDGKRTFYSDSVK,GKAAGTFDL

4 of these entries, quoted again:

{"CDR-H1": "GFCLNSYGIS", "CDR-H2": "VIYADGRRTFYGDSVK", "CDR-H3": "GRAAGTMKS", "log10 Kd, replicates": "n.d. n.d. n.d. n.d. n.d. n.d.", "mean, log10 nM": "n.d.", "empty controls": "0 of 18"}
{"CDR-H1": "GFDINEYGIS", "CDR-H2": "VIYADGKRTAYADSVK", "CDR-H3": "GEAAGTFDS", "log10 Kd, replicates": "n.d. 1.74 n.d. n.d. 0.09 1.01", "mean, log10 nM": "0.94", "empty controls": "0 of 18"}
{"CDR-H1": "GFDLNEYGIS", "CDR-H2": "VIYADGMRTAYANDVK", "CDR-H3": "GEVAGTFDL", "log10 Kd, replicates": "-0.15 n.d. -0.81 -0.72 -1.19 -1.60", "mean, log10 nM": "-0.89", "empty controls": "0 of 18"}
{"CDR-H1": "GFTLNSYGIS", "CDR-H2": "VIYSDGRRTFYTDSVK", "CDR-H3": "GKEAGTFDS", "log10 Kd, replicates": "0.98 0.25 0.63 0.00 0.60 0.56", "mean, log10 nM": "0.50", "empty controls": "3 of 18 (2.10)"}